Data on 3 molecules can be found in PubChem BioAssay AID489028 (Sanford-Burnham Center for Chemical Genomics, 2010).

Protein sequences, listed by entry. Tags and fused reporters are not part of them. Lines headed by an entry give the natural chain unless they say otherwise; changes in a name come on top.
UniProt O15151: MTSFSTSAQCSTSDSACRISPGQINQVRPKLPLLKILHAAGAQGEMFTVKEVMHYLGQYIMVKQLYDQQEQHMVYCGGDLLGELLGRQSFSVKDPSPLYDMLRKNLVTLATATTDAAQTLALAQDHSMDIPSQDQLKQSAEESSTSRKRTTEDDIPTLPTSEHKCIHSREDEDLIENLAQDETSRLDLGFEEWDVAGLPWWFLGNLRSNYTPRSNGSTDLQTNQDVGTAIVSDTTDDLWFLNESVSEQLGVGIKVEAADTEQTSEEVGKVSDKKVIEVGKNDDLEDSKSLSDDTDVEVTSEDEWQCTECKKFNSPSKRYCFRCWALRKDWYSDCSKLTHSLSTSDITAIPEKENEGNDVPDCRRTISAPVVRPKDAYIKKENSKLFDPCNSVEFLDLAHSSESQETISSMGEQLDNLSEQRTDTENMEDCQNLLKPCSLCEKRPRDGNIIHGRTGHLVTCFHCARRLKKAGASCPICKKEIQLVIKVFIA
UniProt Q00987, whole entry, looked up: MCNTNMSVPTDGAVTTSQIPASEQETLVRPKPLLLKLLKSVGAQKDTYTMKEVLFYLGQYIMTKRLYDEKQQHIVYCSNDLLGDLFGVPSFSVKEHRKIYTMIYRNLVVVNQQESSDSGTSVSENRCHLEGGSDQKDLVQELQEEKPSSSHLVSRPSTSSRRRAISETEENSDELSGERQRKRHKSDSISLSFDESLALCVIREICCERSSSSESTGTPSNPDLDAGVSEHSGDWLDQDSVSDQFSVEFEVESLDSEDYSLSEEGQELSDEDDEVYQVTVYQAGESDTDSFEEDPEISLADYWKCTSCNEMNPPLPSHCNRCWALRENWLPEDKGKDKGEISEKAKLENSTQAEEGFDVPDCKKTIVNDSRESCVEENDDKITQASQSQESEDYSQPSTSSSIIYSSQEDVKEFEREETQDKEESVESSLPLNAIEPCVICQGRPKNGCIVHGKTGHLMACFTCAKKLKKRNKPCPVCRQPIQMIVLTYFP

Molecules are shown by their SMILES. The list shows a part of the results, in another mix than the full data. Activity calls are given as the source filed them. Cut-off read from the data, not from the text of the source: active = inhibition above about 40%; inactive = the rest.

The target of this assay is Protein Mdm4 (Homo sapiens) + E3 ubiquitin-protein ligase Mdm2 (Homo sapiens) (UniProt O15151+Q00987). As to the kind of experiment: Mdm2-MdmX complex disruptors, retested hits, confirmation, luminescence, single concentration (AID 489028). To be noted: Mdm2-MdmX binding, luminescent assay; at 8 µM; stronger effect = higher value.
Regarding `C[N+]1=C2C=CC=CC=C2SC12C([N+](=O)[O-])=CC([N+](=O)[O-])=C[C-]2[N+](=O)[O-]` (stereo not drawn), the inhibition is active: 52.5%.
Next, `CCC1=CC2Cc3nc4ccc(Cl)cc4c(N)c3C(C1)C2` (stereo not drawn): active: 54.4%.
For `CN(C)C(=O)c1cc([N+](=O)[O-])cc2c1-c1c(cc([N+](=O)[O-])cc1[N+](=O)[O-])C2=O` the value was active: 54.8%.
